# Experimental data: PubChem BioAssay
# Sequences of proteins named here, by UniProt entry; tags and fusion partners are left off.
# UniProt Q9QUQ5, whole entry: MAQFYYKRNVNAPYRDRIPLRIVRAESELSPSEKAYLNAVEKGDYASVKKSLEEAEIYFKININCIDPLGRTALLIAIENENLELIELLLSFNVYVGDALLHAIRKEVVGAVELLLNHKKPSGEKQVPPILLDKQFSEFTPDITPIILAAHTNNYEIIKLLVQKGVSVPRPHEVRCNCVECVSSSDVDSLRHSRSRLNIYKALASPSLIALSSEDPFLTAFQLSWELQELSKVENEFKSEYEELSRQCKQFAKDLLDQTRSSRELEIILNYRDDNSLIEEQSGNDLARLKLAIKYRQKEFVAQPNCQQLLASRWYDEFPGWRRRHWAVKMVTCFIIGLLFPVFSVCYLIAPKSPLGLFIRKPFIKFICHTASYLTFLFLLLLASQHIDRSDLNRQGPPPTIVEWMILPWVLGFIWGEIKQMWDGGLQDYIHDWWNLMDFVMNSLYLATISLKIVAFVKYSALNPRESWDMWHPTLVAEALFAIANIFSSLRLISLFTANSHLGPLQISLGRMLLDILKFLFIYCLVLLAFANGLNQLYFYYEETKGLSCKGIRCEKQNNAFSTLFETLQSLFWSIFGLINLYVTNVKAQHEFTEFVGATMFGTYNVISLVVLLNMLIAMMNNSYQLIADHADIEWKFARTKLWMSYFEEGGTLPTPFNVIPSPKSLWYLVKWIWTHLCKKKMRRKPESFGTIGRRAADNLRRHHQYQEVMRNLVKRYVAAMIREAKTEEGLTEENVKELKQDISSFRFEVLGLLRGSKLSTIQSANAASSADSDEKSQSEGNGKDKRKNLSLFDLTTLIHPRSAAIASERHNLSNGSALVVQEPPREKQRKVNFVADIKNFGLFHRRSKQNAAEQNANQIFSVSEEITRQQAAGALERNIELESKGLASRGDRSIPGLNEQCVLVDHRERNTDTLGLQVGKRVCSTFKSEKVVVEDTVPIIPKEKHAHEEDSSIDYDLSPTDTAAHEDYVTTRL
# UniProt Q61143, whole entry: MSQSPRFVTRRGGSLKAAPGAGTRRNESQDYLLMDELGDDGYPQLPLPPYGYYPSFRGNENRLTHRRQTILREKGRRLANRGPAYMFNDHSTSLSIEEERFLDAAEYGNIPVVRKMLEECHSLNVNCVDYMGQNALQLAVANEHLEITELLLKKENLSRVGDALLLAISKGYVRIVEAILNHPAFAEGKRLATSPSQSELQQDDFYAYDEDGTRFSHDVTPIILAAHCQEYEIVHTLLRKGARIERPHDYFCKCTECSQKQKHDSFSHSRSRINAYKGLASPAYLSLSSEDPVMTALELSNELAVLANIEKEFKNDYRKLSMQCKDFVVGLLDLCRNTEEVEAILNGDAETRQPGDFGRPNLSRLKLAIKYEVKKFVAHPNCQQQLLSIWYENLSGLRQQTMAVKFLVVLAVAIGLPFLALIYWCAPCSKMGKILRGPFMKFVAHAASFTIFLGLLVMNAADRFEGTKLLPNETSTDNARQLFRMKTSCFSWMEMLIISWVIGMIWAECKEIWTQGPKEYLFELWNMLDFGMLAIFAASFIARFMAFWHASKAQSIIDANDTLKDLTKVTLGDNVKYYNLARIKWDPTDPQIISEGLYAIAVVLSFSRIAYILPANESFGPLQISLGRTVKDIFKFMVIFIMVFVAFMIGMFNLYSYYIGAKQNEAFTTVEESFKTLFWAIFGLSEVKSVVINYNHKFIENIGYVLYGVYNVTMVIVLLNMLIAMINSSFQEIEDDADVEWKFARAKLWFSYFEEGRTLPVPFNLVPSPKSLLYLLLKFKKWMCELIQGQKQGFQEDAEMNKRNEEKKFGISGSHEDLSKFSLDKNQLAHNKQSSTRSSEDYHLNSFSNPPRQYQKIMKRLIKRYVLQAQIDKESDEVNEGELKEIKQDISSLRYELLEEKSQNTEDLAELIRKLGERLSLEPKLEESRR
# Only a part is listed here, and it is no random draw. For some assays here: Results with a measured potency or affinity are listed apart. Active and inactive are the calls of the source.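 How the source made its calls, unless noted: active means calcium signal rise more than 3 SD above the low-dose agonist control mean, in both duplicate plates and the primary screen; inactive means the rest.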
# Legend:
# [1] = target: Short transient receptor potential channel 4 (Mus musculus) (UniProt Q9QUQ5); assay: calcium entry via TRPC4 opening agents – cell-based, HEK293 TRPC4/mu-opioid, Fluo-4 calcium, dose response (AID 434937;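 active means primary screen activator hit with a dose response curve and TRPC4 channel activation at any tested dose; inactive means no activation, no dose response, or not a primary hit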); details: HEK293 TRPC4 cells, Fluo-4 calcium fluorescence ratio; at 20 µM (top of the series)
# [2] = target: Short transient receptor potential channel 6 (Mus musculus) (UniProt Q61143); assay: TRPC6 blockade by TRPC4 inhibitor hits – cell-based, HEK293, membrane potential dye, duplicate, selectivity assay for TRPC4 inhibitor project, confirmation (AID 434948;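 active means active in primary screen and both duplicates, each dropping signal beyond three positive-control SD with fluorescence still positive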); details: HEK293 TRPC6, membrane potential dye fluorescence, at 10 µM, stimulated with maximal-effect acetylcholine; hits give high values
# How it was run: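 Material – TRPC6-expressing HEK293 cells · Repeats – two replicates · Read-out basis – control-normalized integrated fluorescence ratio · Schedule – 45 min RT dye load, 110 s compound, 110 s agonist read · Reagent – acetylcholine at maximal (ECmax) concentration, added after compound · Detection – kinetic fluorescence of membrane potential dye with 5 s baseline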
# [3] = target: Short transient receptor potential channel 6 (Mus musculus) (UniProt Q61143); assay: positive modulators of mouse TRPC6 channel – HEK293 cells, membrane potential dye, duplicate, selectivity assay for TRPC4 potentiator project, confirmation (AID 434952;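 active means compound raising the membrane signal above positive-control mean plus 3 SD in both repeats, and a primary screen hit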); details: HEK293 TRPC6, membrane potential dye fluorescence; at 10 µM; maximal acetylcholine added after compound
# [4] = nonspecific potentiation of DAMGO calcium response – cell-based, HEK293 mu-opioid receptor line, counter-screen for TRPC4 allosteric potentiator project, confirmation (AID 449724); details: HEK293 mu-opioid receptor cells, Fluo-4 calcium flux; at 10 µM; compound added before EC20 DAMGO stimulus
# [5] = membrane potential response modulators in host HEK293 cells – cell-based, second counter-screen, parental HEK293, membrane potential dye, counter-screen for TRPC6 modulator project, confirmation (AID 488926;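 active means membrane potential signal drops by more than 5 SD from the mean control signal, in both duplicate plates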;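 further: plate controls were acetylcholine ECmax control wells for no effect and buffer only wells for full effect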); details: parental HEK293, membrane potential dye fluorescence; at 10 µM; hits give high values; after compound, maximal acetylcholine stimulation
smiles,measurement,setting,value
CCN(CC)CCCOC(=O)C(O)(c1ccccc1)c1ccccc1,activation ratio,[1],inactive: 37.8
same,outcome,[2],inactive
same,outcome,[3],inactive
same,outcome,[4],inactive
same,inhibition,[5],active: 116%
CN(C)CCOC(=O)C(O)(c1ccccc1)C1CCCC1 (stereo unspecified),activation ratio,[1],inactive: 3.43
same,inhibition,[2],active: 5%
same,outcome,[3],inactive
same,outcome,[4],inactive
CCN(CC)CC(O)COC(=O)C(O)(c1ccccc1)C1CCCCC1 (stereo unspecified),inhibition,[5],active: 122%
CN(C)C1(CNC(=O)c2ccc(Cl)c(S(N)(=O)=O)c2)CCCCC1,outcome,[4],inactive
